The assay deals with THRα (Homo sapiens, UniProt P10827). Nature of the assay: THRα binding assay (TR-FRET co-activating peptide recruitment). Format: biochemical. The settings on record: THRα instead of THRβ, agonistic effect. (TR-FRET usually uses a lanthanide donor and a delayed reading to cut background.)

By UniProt entry, the sequences of proteins in these tests, tags left out. Residues count along the entry.
UniProt P10827, 163-410 isoform P10827-2 limits assumed: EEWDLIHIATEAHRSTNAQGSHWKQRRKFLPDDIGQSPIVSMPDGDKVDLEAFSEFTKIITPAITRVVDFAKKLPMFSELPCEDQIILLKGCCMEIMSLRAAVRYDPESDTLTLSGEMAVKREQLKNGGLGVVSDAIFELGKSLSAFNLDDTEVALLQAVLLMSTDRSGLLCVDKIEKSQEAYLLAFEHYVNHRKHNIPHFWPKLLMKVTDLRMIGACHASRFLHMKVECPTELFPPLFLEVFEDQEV

Broadly, the Emax is the size of the effect at its maximum, as opposed to the concentration needed.

Molecule `CC(C)c1cc(Oc2c(Cl)cc(-n3nc(C#N)c(=O)[nH]c3=O)cc2Cl)n[nH]c1=O` [Control compound 2, MGL-3196, reference compound] gave a maximal effect (Emax) of 111%.

The values are drawn from patent publication US20230089582A1, “1,2,4-TRIAZINE-3,5-DIONE COMPOUND, PREPARATION METHOD THEREFOR, AND APPLICATION THEREOF” (KPC PHARMACEUTICALS, INC, priority 2019, published 2023).
